## Apparent affinities of Ab-14 variants for a coronavirus HR2 peptide

Target: peptide PDVDLGDISGINAS, taken from heptad repeat 2 (HR2) of SARS-CoV-2 spike.

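Phage display of a naive human antibody library on the peptide gave the parent. The variants were designed computationally from a first round of random CDR variants and then made and measured. Their group label is 14H_GP_Gen (GP: Gaussian process model; Gen: genetic algorithm; a sequence that several methods proposed may carry one label only). The assay is AlphaSeq: two haploid yeast populations carry antibody and antigen on their surface. The frequency of each diploid, read from paired DNA barcodes, reflects how well the two displayed proteins bind. A regression on co-assayed BCL2-family reference pairs converts the normalised counts of each replicate to an apparent Kd. The assay was run in six technical replicates.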

Ab-14 is the parent antibody, in scFv form: VH, then a 15-residue (Gly4Ser)3 linker, then VL. The light chain is unchanged in all variants.
VH: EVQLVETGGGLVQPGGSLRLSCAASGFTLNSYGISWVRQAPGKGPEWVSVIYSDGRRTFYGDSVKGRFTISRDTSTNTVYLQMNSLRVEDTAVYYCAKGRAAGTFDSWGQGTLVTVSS
VL: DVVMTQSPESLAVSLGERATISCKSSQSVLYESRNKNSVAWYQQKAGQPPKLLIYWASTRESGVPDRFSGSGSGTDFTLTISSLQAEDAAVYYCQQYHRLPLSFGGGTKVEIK

Variants are written as CDR1, CDR2 and CDR3 of the heavy chain (limits as in the source). Parent: GFTLNSYGIS, VIYSDGRRTFYGDSVK, GRAAGTFDS. Scale: log10 of Kd in nM, estimated from mating counts; low values are strong binders. Averages over replicates are reported, and they cover detected replicates only. A pair that was not seen in that replicate is written "ND"; this usually means weak binding, but a binder can also be missed.

CDR-H1	CDR-H2	CDR-H3	replicates, log10 nM	mean log10 Kd (nM)	control signals
GFELNEYGIS	VIYSDGRRTFYGDSVK	GKTAGTFDS	-0.10 / -0.02 / -0.44 / -0.53 / -0.17 / -0.09	-0.23	0/18
GFELNEYGIS	VIYSDGRRTFYGDSVK	GNAAGTFDS	1.08 / 0.82 / 0.60 / 0.77 / 0.37 / 1.19	0.81	0/18
GFDLNSYGIS	VIYSDGRRTFYHDAVK	GRTAGTFDS	1.07 / 0.33 / ND / -0.18 / 0.10 / 1.10	0.48	0/18
GFDLNSYGIS	VIYSDGRRTFYHDSVK	GKEAGTFDS	1.29 / -0.44 / -0.28 / 0.16 / -0.02 / 0.24	0.16	0/18
GFELNSYGIS	VIYSDGRRTFYGDSVK	GEAAGTFDL	1.13 / 1.11 / 0.50 / 2.34 / ND / 1.12	1.24	1/18 (1.19)
GFDLNSYGIS	VIYSDGRRTFYGDWVK	GRTAGTFDS	1.16 / 1.58 / 0.91 / 0.75 / 1.33 / 1.44	1.20	1/18 (2.34)
GFSLNSYGIS	VIYSDGRRTFYADNVK	GRQAGTFDS	0.57 / 0.36 / 0.36 / 0.40 / 0.16 / 0.21	0.34	0/18
GFELNSYGIS	VIYADGRRTFYGDSVK	GREAGTFDT	-0.15 / -0.62 / -0.52 / -0.22 / -0.55 / -0.26	-0.39	0/18
GFQLNSYGIS	VIYSDGRRTFYGDSVK	GRQAGTFDT	ND / ND / 0.67 / 2.48 / 0.58 / ND	1.24	0/18
KFQLNSYGIS	VIYSDGRRTFYADSVK	GRTAGTFDS	0.79 / ND / 1.75 / 1.07 / ND / 1.67	1.32	0/18
KFDLNSYGIS	VIYSDGRRTFYGDSVK	GRMAGTFDS	ND / 1.19 / 1.90 / 2.12 / 1.67 / 1.84	1.74	0/18
GFELNEYGIS	VIYSDGRRTFYGDSVK	GRTAGTFDE	0.14 / -0.21 / -0.16 / -0.19 / -0.05 / 0.33	-0.02	0/18
GFELNSYGIS	VIYSDGRRTFYGDDVK	GEAAGTFDS	0.26 / 0.24 / 0.93 / 0.11 / 1.39 / 0.51	0.57	0/18
GFDLNSYGIS	VIYSDGRRTFYGDSVK	GREAGTFDW	1.63 / 0.75 / 0.51 / 0.17 / 0.71 / 0.86	0.77	0/18
GFHLNSYGIS	VIYSDGRRTFYSDSVK	GQTAGTFDS	ND / ND / 1.41 / 0.24 / 0.15 / 0.18	0.49	0/18
GFSLNSYGIS	VIYSDGRRTFYADDVK	GREAGTFDS	-0.05 / -0.52 / -0.60 / -0.58 / -0.56 / -0.61	-0.49	1/18 (1.68)
GFDLNEYGIS	VIYSDGRRTFYGDSVK	GHAAGTFDS	0.22 / 0.19 / 0.08 / -0.41 / -0.02 / 0.05	0.02	0/18
GFSLNSYGIS	VIYSDGRRTFYVDSVK	GKNAGTFDS	1.30 / 0.66 / 1.13 / 0.82 / 0.63 / 0.87	0.90	0/18
GFVLNSYGIS	VIYADGRRTFYGDSVK	GNAAGTFDS	0.37 / 0.56 / ND / 0.56 / 0.14 / 0.86	0.50	0/18
SFNLNSYGIS	VIYSDGRRTFYGDSVK	GRTAGTFDS	ND / ND / ND / ND / ND / 1.68	1.68	0/18
GFDLNSYGIS	VIYSDGRRTFYGDSVK	GNAAGTFDV	0.24 / 0.52 / 0.34 / 0.40 / 0.85 / 0.93	0.55	1/18 (2.06)
GFELNSYGIS	VIYADGRRTFYGDSVK	GKAAGTFDA	0.41 / 0.06 / -0.03 / ND / -0.37 / ND	0.02	0/18
GFELNSYGIS	VIYSDGRRTFYGDSVK	GEAAGTFDN	ND / ND / ND / ND / ND / ND	ND	0/18
GFELNEYGIS	VIYSDGRRTFYGDSVK	GREAGTFDT	0.00 / -0.31 / -0.29 / -0.12 / -0.52 / -0.33	-0.26	0/18
GFELNSYGIS	VIYSDGMRTFYGDSVK	GRTAGTFDS	ND / 1.15 / 1.04 / 0.78 / 0.98 / 1.16	1.02	0/18
GFSLNSYGIS	VIYSDGRRTFYGDQVK	GRNAGTFDS	0.71 / 0.87 / 1.19 / 1.54 / 1.19 / 0.97	1.08	0/18
GFELNEYGIS	VIYSDGQRTFYGDSVK	GRTAGTFDS	0.44 / 0.16 / 0.28 / -0.12 / -0.09 / 0.32	0.17	1/18 (1.86)
GFELNSYGIS	VIYSDGRRTFYVDSVK	GKAAGTFDT	1.20 / 1.51 / 1.54 / 1.24 / 3.29 / 1.94	1.79	0/18
MFSLNSYGIS	VIYSDGRRTAYGDSVK	GRAAGTFDS	ND / 1.96 / 1.39 / 2.20 / 2.21 / ND	1.94	1/18 (2.01)
GFSLNEYGIS	VIYSDGRRTFYGDSVK	GNAAGTFDK	-0.17 / 0.10 / 0.72 / 0.03 / 0.04 / 0.05	0.13	0/18
GFELNSYGIS	VIYSDGRRTFYGDSVK	GNEAGTFDT	-0.32 / -0.08 / -0.13 / ND / 0.05 / 0.95	0.10	0/18
GFTLNSYGIS	VIYSDGKRTFYGDSVK	GRLAGTFDT	ND / 1.21 / ND / 1.22 / 0.86 / 1.07	1.09	0/18
HFDLNSYGIS	VIYSDGRRTFYGDSVK	GRTAGTFDS	0.87 / 1.21 / ND / 1.26 / ND / 2.41	1.44	0/18
GFDLNSYGIS	VIYSDGRRTFYGDSVK	GRAAGTFDV	0.29 / -0.75 / -0.45 / -0.53 / -0.66 / -0.36	-0.41	0/18
KFDLNSYGIS	VIYSDGRRTFYGDSVK	GNTAGTFDS	0.27 / 0.80 / 1.55 / -0.15 / 0.96 / 0.54	0.66	0/18
GFHLNSYGIS	VIYSDGRRTFYSDSVK	GQEAGTFDS	0.32 / -0.15 / 0.40 / -0.04 / 0.11 / 0.29	0.15	0/18
SFDLNSYGIS	VIYSDGRRTFYADSVK	GRTAGTFDS	-0.52 / -0.32 / -0.29 / -0.45 / -0.56 / -0.10	-0.37	2/18 (2.11)
GFDLNSYGIS	VIYSDGRRTFYDDSVK	GQTAGTFDS	0.71 / 0.00 / -0.04 / -0.04 / -0.20 / 0.02	0.07	1/18 (1.63)
GFSLNSYGIS	VIYSDGRRTFYQDNVK	GEAAGTFDS	-0.17 / -0.02 / -0.61 / -0.22 / -0.47 / -0.37	-0.31	0/18

Repeated from above, the 6 best binders with a signal in all replicates:

CDR-H1	CDR-H2	CDR-H3	replicates, log10 nM	mean log10 Kd (nM)	control signals
GFSLNSYGIS	VIYSDGRRTFYADDVK	GREAGTFDS	-0.05 / -0.52 / -0.60 / -0.58 / -0.56 / -0.61	-0.49	1/18 (1.68)
GFDLNSYGIS	VIYSDGRRTFYGDSVK	GRAAGTFDV	0.29 / -0.75 / -0.45 / -0.53 / -0.66 / -0.36	-0.41	0/18
GFELNSYGIS	VIYADGRRTFYGDSVK	GREAGTFDT	-0.15 / -0.62 / -0.52 / -0.22 / -0.55 / -0.26	-0.39	0/18
SFDLNSYGIS	VIYSDGRRTFYADSVK	GRTAGTFDS	-0.52 / -0.32 / -0.29 / -0.45 / -0.56 / -0.10	-0.37	2/18 (2.11)
GFSLNSYGIS	VIYSDGRRTFYQDNVK	GEAAGTFDS	-0.17 / -0.02 / -0.61 / -0.22 / -0.47 / -0.37	-0.31	0/18
GFELNEYGIS	VIYSDGRRTFYGDSVK	GREAGTFDT	0.00 / -0.31 / -0.29 / -0.12 / -0.52 / -0.33	-0.26	0/18

The range of this assay differs from that of the first round, and the authors advise against merging the two. Three control strains display no target. For all heavy chain designs, 1% of the pairings with them gave a signal, with a median of 2.08 and one signal in twenty below 0.84, so weak values seen in few replicates may be background. The control count says in how many pairings with the empty strains this scFv gave a signal, with their mean in brackets. The authors' rule: three or more of the six replicates give a measured affinity, fewer mean a poor binder.

Reference: Li et al. 2023, doi:10.1038/s41467-023-39022-2. File: FLAb, binding data.